Earlier results, collected in patent publication US10596162B2 (WYETH LLC, priority 2005, dated 2020).

System: NCI-H1650 cells (delE746-A750 EGFR)
Conditions: cited from earlier work

SMILES: COc1cc2ncnc(Nc3ccc(F)c(Cl)c3)c2cc1OCCCN1CCOCC1 [gefitinib, Gefitinib, reference compound]
- increased sensitivity to gefitinib compared with some NSCLC lines expressing wild-type EGFR: 100 fold
